The record followed here is PubChem BioAssay AID624168 (Sanford-Burnham Center for Chemical Genomics, 2012).

This is a selection; strong and weak results do not stand in their true shares. Active and inactive are the calls of the source.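 How the source made its calls: active means activation of at least 8% versus controls, or a plate z-score of at least 8; inactive means the rest.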

A short description of the test: compounds raising alpha-dystroglycan glycosylation – uHTS, Pro5-aDG cells, AlphaScreen, primary screen (AID 624168).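 Further: Pro5 are CHO cells carrying HIG-tagged alpha-DG that lacks glycosylation.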 As to conditions: alpha-DG glycosylation AlphaScreen (IIH6), at 10 µM, active compounds read high, 0% Pro5, 100% B10-LARGE cell signal. (In general: Alpha assays give light when donor and acceptor beads are brought close together.)
For the molecule `O=C(NCC1(N2CCCCC2)CCCCC1)c1ccco1`, the activation is inactive: 0.1%. As for `Cn1c(=O)[nH]cc(N(CCCl)CCCl)c1=O`, the activation was inactive: 0.3%. With `CN(C)c1ccc(C(=O)NCC2(N3CCCCC3)CCCCC2)cc1` the figure was inactive: -0.3%. To `Cc1ccccc1NC1(C#N)CCN(Cc2ccccc2)CC1` belongs inactive: -0.1%; to `CC(C)(C)n1nnnc1C(c1ccnc2ccccc12)N1CCC(n2c(=O)[nH]c3ccccc32)CC1` (configuration not stated), inactive: 0%. To `COc1ccc(C(c2nnnn2C2CCCCC2)N2CCC(n3c(=O)[nH]c4ccccc43)CC2)cc1` (configuration not stated) belongs inactive: -0.3%; to `CCN1CCC(Nc2cccc(F)c2)CC1`, inactive: 0.1%; to `Cc1ccc(C(=O)NCC2(N3CCCCC3)CCCCC2)o1`, inactive: 0.2%.

With `Fc1ccccc1NC1CCN(Cc2ccccc2)CC1`, the activation is inactive: -0.1%.

`Cc1ccc(NC2(C#N)CCN(Cc3ccccc3)CC2)cc1`: the activation is inactive: 0.1%. For `CC(=O)N(c1ccccc1)C1CCNCC1`, the activation was inactive: -0.4%. With `COc1cccc(C(c2nnnn2C2CCCCC2)N2CCC(n3c(=O)[nH]c4ccccc43)CC2)c1OC` (configuration not stated) the figure was inactive: -0.5%; with `CCC(c1nnnn1C1CCCCC1)N1CCC(n2c(=O)[nH]c3ccccc32)CC1` (configuration not stated), inactive: 3.4%. To `O=c1[nH]c2ccccc2n1C1CCN(C(c2ccnc3ccccc23)c2nnnn2C2CCCCC2)CC1` (configuration not stated) belongs inactive: -0.1%; to `COc1cc(OC)cc(C(=O)NCC2(N3CCCCC3)CCCCC2)c1`, inactive: 0%; to `CN1CCC(Nc2ccc(Cl)cc2)CC1`, inactive: 0.2%. To `COc1cccc(C(=O)N(c2cc(C)cc(C)c2)C2CCN(C(=O)OC(C)(C)C)CC2)c1` belongs inactive: 0.3%; to `COc1cccc(C(c2nnnn2C2CCCC2)N2CCC(n3c(=O)[nH]c4ccccc43)CC2)c1OC` (configuration not stated), inactive: -0.3%. For `COc1cc(OC)cc(C(=O)NCC2(N3CCOCC3)CCCCC2)c1`, the activation was inactive: -0.1%. With `CCC(CO)(C(=O)OC1CN2CCC1CC2)c1ccccc1` (configuration not stated) the figure was inactive: 0%; with `CC(C)(C)OC(=O)N1CCC(Nc2ccccc2)CC1`, inactive: -0.3%; with `NN(c1ccccc1)C1CCN(CCc2ccccc2)CC1`, inactive: -0.1%. With `O=C(O)C1(Nc2ccccc2)CCN(Cc2ccccc2)CC1` the figure was inactive: 0%; with `CCCOc1ccc(C(=O)NCC2(N(C)C)CCCCC2)cc1`, inactive: 0.1%; with `O=c1[nH]c2ccccc2n1C1CCN(C(c2cc3ccccc3o2)c2nnnn2C2CCCC2)CC1` (configuration not stated), inactive: -0.4%. To `CCOc1ncccc1C(=O)NCC1(N2CCOCC2)CCCCC1` belongs inactive: 0.2%; to `CN1CCC(Nc2ccc(F)c(Cl)c2)CC1`, inactive: -0.1%.

Take `O=C(OC1CN2CCC1CC2)C1c2ccccc2C=Cc2ccccc21` (configuration not stated): the activation was inactive: -0.1%.

On to `O=c1[nH]c2ccccc2n1C1CCN(C(c2cccs2)c2nnnn2C2CCCC2)CC1` (configuration not stated), for which the activation was inactive: 0%.

Turning to `CCCCn1nnnc1C(c1cccc(OC)c1OC)N1CCC(n2c(=O)[nH]c3ccccc32)CC1` (configuration not stated), the activation was inactive: -0.3%. With `COc1cccc(C(c2nnnn2C(C)(C)C)N2CCC(n3c(=O)[nH]c4ccccc43)CC2)c1OC` (configuration not stated) the figure was inactive: -0.1%; with `CCOC(=O)N1CCC(Nc2ccc(C)cc2)CC1`, inactive: 0%.

Turning to `N/C(=N\O)c1c(N)no[n+]1[O-]`, the activation was inactive: 0.4%. With `O=c1[nH]c2ccccc2n1C1CCN(C(c2cccs2)c2nnnn2C2CCCCC2)CC1` (configuration not stated) the figure was inactive: -0.5%. On to `COc1ccc(C(=O)NCC2(N3CCOCC3)CCCCC2)cc1OC`, for which the activation was inactive: 0.2%. On to `O=c1[nH]c2ccccc2n1C1CCN(C(c2ccnc3ccccc23)c2nnnn2C2CCCC2)CC1` (configuration not stated), for which the activation is inactive: -0.1%.

Turning to `CCCCn1nnnc1C(c1ccccc1)N1CCC(n2c(=O)[nH]c3ccccc32)CC1` (configuration not stated), the activation is inactive: -0.2%. With `COc1cc(C(=O)NCC2(N3CCOCC3)CCCCC2)cc(OC)c1C` the figure was inactive: 0.3%; with `O=C(NCC1(N2CCOCC2)CCCCC1)c1cc(Br)ccc1Cl`, inactive: 0.2%; with `CC(C)(C)n1nnnc1C(c1cccc2ccccc12)N1CCC(n2c(=O)[nH]c3ccccc32)CC1` (configuration not stated), inactive: 0.1%. With `CN(C)C1(CNC(=O)c2cccc(C#N)c2)CCCCC1` the figure was inactive: 0%. For the molecule `c1ccc(CN2CCC(Nc3ccccc3)CC2)cc1`, the activation was inactive: 0.3%. To `O=c1[nH]c2ccccc2n1C1CCN(C(c2ccccc2)c2nnnn2C2CCCC2)CC1` (configuration not stated) belongs inactive: -0.2%; to `CCCN1CCC(Nc2cc(OC)cc(OC)c2)CC1`, inactive: -0.1%. To `Cc1cc(N(CCCl)CCCl)ccc1C=O` belongs inactive: 0.3%; to `N#Cc1ccc(C(=O)NCC2(N3CCCCC3)CCCCC2)cc1`, inactive: -0.1%. To `CC(C)(C)OC(=O)N1CCC(N(C(=O)c2ccccc2)c2ccc(Cl)cc2)CC1` belongs inactive: 0%.
